Source: ChEMBL document CHEMBL1130298, “Class III antiarrhythmic activity in vivo by selective blockade of the slowly activating cardiac delayed rectifier potassium current IKs by (R)-2-(2,4-trifluoromethyl)-N-[2-oxo-5-phenyl-1-(2,2,2-trifluoroethyl)- 2, 3-dihydro-1H-benzo[e][1,4]diazepin-3-yl]acetamide” (J Med Chem, 1997)

Amino acid sequences for entries named in this document (tags omitted). A change or cut given only in a name is not applied to a line headed by its entry.
UniProt Q12809: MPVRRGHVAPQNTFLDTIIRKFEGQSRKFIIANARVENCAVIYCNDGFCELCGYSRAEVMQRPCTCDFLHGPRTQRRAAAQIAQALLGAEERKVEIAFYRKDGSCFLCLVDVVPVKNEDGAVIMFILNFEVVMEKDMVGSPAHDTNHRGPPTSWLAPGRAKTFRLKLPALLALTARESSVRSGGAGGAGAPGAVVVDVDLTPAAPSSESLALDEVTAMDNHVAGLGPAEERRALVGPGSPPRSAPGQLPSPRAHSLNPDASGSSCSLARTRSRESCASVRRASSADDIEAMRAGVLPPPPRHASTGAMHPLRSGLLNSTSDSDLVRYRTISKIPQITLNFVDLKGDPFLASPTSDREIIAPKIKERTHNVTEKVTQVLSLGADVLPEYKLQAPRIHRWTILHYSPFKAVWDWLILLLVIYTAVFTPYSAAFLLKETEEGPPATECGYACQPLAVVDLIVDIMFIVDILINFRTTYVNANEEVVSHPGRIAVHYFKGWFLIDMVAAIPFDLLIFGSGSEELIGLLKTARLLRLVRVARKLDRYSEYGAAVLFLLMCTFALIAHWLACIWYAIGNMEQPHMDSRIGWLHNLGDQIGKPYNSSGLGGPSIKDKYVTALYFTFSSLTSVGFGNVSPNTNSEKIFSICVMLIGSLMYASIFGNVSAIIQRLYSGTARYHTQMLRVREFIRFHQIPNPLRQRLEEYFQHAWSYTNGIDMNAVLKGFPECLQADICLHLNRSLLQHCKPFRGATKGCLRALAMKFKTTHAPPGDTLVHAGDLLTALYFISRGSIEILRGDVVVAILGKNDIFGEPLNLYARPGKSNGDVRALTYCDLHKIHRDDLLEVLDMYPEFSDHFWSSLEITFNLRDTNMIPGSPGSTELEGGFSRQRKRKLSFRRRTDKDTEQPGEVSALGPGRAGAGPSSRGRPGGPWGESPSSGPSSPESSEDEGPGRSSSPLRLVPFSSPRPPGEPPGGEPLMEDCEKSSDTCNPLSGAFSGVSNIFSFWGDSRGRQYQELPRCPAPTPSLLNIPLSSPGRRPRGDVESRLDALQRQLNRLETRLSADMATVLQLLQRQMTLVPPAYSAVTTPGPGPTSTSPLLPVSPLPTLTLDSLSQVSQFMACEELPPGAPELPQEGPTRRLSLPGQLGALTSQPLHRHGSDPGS

Target: Voltage-gated inwardly rectifying potassium channel KCNH2 (Homo sapiens, UniProt Q12809)
Assay: Inhibition of Ikr current in isolated guinea pig myocytes during a 0.5 s voltage clamp step from -50 to -10 mV.
Type: functional, cell-based, Cavia porcellus
Conditions: target entry is the homologue from another species

Row | Structure (SMILES) | IC50
1 | O=C(Cc1ccc(Cl)cc1Cl)N[C@@H]1N=C(c2ccccc2)c2ccccc2N(CC(F)(F)F)C1=O | 2.4 µM
2 | CN1C(=O)[C@H](NC(=O)C(N)Cc2ccccc2)N=C(c2ccccc2)c2ccccc21 (stereo not given in full) | 8.8 µM
3 | Cc1cccc(NC(=O)N[C@H]2N=C(c3ccccc3)c3ccccc3N(C)C2=O)c1 | 10 µM
4 | Cc1cccc(NC(=O)N[C@@H]2N=C(c3ccccc3)c3ccccc3N(C)C2=O)c1 [L-365260] | 5 µM
5 | O=C(Cc1ccc(C(F)(F)F)cc1C(F)(F)F)N[C@@H]1N=C(c2ccccc2)c2ccccc2N(CC(F)(F)F)C1=O [L-768673] | 6 µM
